The text below walks through data of PubChem BioAssay AID1508602 (The Scripps Research Institute Molecular Screening Center, 2020).

Sequences of proteins named here, by UniProt entry; tags and fusion partners are left off. A change or cut given only in a name is not applied to a line headed by its entry.
UniProt Q8TDV0: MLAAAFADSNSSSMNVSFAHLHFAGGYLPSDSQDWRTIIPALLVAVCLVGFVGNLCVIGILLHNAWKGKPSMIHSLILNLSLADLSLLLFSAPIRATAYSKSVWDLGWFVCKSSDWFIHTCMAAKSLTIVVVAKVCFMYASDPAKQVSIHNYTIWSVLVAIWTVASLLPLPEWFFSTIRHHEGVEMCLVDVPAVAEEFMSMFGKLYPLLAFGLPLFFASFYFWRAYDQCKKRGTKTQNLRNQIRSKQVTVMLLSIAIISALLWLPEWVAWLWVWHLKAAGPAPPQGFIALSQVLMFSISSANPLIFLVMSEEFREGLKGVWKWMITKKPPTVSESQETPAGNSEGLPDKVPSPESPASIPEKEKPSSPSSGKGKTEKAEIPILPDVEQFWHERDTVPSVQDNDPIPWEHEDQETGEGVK

Molecules are shown by their SMILES. This is a selection; strong and weak results do not stand in their true shares. Active and inactive are the calls of the source. No stated cut-off is given here; in the data, active means activation above about 4.9%; inactive means the rest.

The target of the assay is G-protein coupled receptor 151 (Homo sapiens) (UniProt Q8TDV0). Description: activators of human GPR151, primary screen, cell-based, PathHunter beta-arrestin, luminescence (AID 1508602).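 Further: 0% = median of compound wells and 100% = cells with positive control.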 Particulars: PathHunter beta-arrestin GPR151 cells, at 11.2 µM, hits give high values.
`Cc1ccc(S(=O)(=O)NCCCCC(NC(=O)OC(C)(C)C)C(=O)O)cc1` (stereo unspecified): the activation is inactive: -0.241%. Take `CC(Cl)(CSSCC(C)(Cl)C(=O)O)C(=O)O` (stereo unspecified): the activation is inactive: -0.0892%.

`COC(=O)c1nsnc1NCCCl`: the activation was inactive: 0.597%. The result for `CC1(CBr)Cn2c(nc3ccccc3c2=O)S1` (stereo unspecified) reads inactive: 0.809%; that for `COc1cc([N+](=O)[O-])cc([N+](=O)[O-])c1N/N=C(/C)c1cccc([N+](=O)[O-])c1`, inactive: -0.733%; that for `CCOc1ccc(NC(=O)c2ccc([N+](=O)[O-])cc2[N+](=O)[O-])c([N+](=O)[O-])c1`, inactive: 0.38%.

For the compound `COc1ccc2nc(SCc3ccc(C(=O)O)cc3)[nH]c2c1`, the activation was inactive: 0.395%. Regarding `CCOP(=O)(NC(=NC(C)c1ccccc1)NC(C)c1ccccc1)OCC` (stereo unspecified), the activation is inactive: -2.42%.

With `COc1cccc(OP(=O)(Nc2ccccn2)Oc2cccc(OC)c2)c1`, the activation is inactive: -0.321%.

In the case of `O=P1(Nc2ccccn2)COc2ccccc2OC1`, the activation is inactive: -1.43%. Turning to `O=[N+]([O-])c1cc([N+](=O)[O-])c(N2CCCCC2)c([N+](=O)[O-])c1`, the activation was inactive: -0.263%. Take `CCOP(=O)(CN)OCC`: the activation is inactive: -1.6%. As to `CN(CCCl)Cc1cc(Cl)c(NC2=NCCN2)c(Cl)c1`, the activation was inactive: 1.91%.

As for `CC(C)(C)C(=O)NC(Sc1ncccn1)C(Cl)(Cl)Cl` (stereo unspecified), the activation is inactive: 0.787%.

Turning to `n1[nH]nc2c1c1n[nH]nc1c1n[nH]nc21`, the activation was inactive: 0.131%. The result for `CCOc1ccc(NP2(=O)C=C(Cl)N(C)C(=O)N2C)cc1` (stereo unspecified) reads inactive: -0.276%.

As for `COc1cc([N+](=O)[O-])cc([N+](=O)[O-])c1OCC(=O)N/N=C/c1ccc([N+](=O)[O-])o1`, the activation was inactive: -1.5%. The result for `O=[N+]([O-])c1ccc(N/N=C/c2ccc([N+](=O)[O-])s2)c([N+](=O)[O-])c1` reads inactive: 1.43%. The result for `O=[N+]([O-])c1ccc(NCCN(CCO)c2ccc([N+](=O)[O-])cc2[N+](=O)[O-])c(Cl)c1` reads inactive: 0.384%. The result for `CCSP(=O)(c1ccccc1)c1ccccc1` reads inactive: 1.84%. As to `CC(=Nc1cc([N+](=O)[O-])ccc1C)NNc1ccc([N+](=O)[O-])cc1[N+](=O)[O-]`, the activation was inactive: -0.494%. In the case of `COP(=O)(OC)Oc1c(Cl)c(Cl)c(O)c(Cl)c1Cl`, the activation was inactive: -0.35%. For `Cc1c(N=Cc2ccc([N+](=O)[O-])cc2)cc([N+](=O)[O-])cc1[N+](=O)[O-]`, the activation was inactive: -0.703%. As to `O=C(Nc1cccc(F)c1)N(Cc1cccnc1)C1CCN(CCc2ccccn2)CC1`, the activation is inactive: 0.999%. Take `CC(C)OP(=O)(Nc1ccc(Br)cc1)OC(C)C`: the activation is inactive: 0.593%.

Consider `CC1(C)COP(=S)(N(C2=NCCC2)c2ccccc2)OC1`, for which the activation is inactive: 0.86%. On to `CCCCOP(=O)(Nc1cccc(F)c1)OCCCC`, for which the activation was inactive: 1.4%. The result for `Cc1nn(-c2ccccc2)c2c1P(=O)(N1CCOCC1)N(C)C(c1ccccc1)=N2` (stereo unspecified) reads inactive: 1.85%; that for `CC(C)NC(=O)N(Cc1cccnc1)C1CCN(CCc2ccccn2)CC1`, inactive: -2.15%. The result for `O=[N+]([O-])c1ccc2c(c1)/C(=N\O)c1cc([N+](=O)[O-])cc([N+](=O)[O-])c1-2` reads inactive: 0.375%; that for `Cc1n[n+]2c([nH]c1=O)SCC(Br)C2c1ccccc1` (stereo unspecified), inactive: -0.0802%. The result for `N#Cc1cccc(C(=O)N(Cc2ccco2)C2CCN(CCc3ccccn3)CC2)c1` reads inactive: 0.0513%; that for `CN(C)C1(CNC(=O)c2ccc(S(C)(=O)=O)cc2)CCCCC1`, inactive: -0.472%. `COCCN(CCOC)C(=O)COC(=O)C(O)(c1ccccc1)c1ccccc1`: the activation is inactive: -1.17%. The result for `O=C(Cc1ccc(F)cc1)N(Cc1ccco1)C1CCN(CCc2ccccn2)CC1` reads inactive: 2.55%; that for `O=C(O)C(Cl)CSc1nc2ccccc2o1` (stereo unspecified), inactive: -2.05%; that for `COc1ccccc1NC1=NCC(CBr)S1` (stereo unspecified), inactive: -0.284%.

On to `O=C(/C=C/c1ccccc1)OC1CN2CCC1CC2` (stereo unspecified), for which the activation was inactive: -0.844%. Regarding `Cc1ccc(NC2=NCC(CBr)S2)cc1` (stereo unspecified), the activation is inactive: 0.394%. The result for `O=[N+]([O-])c1ccc(N/N=C/c2ccc(Cl)c([N+](=O)[O-])c2)c([N+](=O)[O-])c1` reads inactive: -0.0358%; that for `NC(=O)c1nsnc1NCCCl`, inactive: 0.349%; that for `O=C(COC(=O)C(O)(c1ccccc1)c1ccccc1)NC(=O)NCc1ccccc1`, inactive: -1.31%.

On to `NC(=O)Nc1ccc([As](=O)(O)O)cc1`, for which the activation is inactive: -2%. The result for `Cc1ncc(-c2ccccc2)c2ccccc12` reads inactive: -0.608%. With `Cc1ccnc(NP2(=O)C=C(c3ccccc3)OC(c3ccccc3)=C2)c1`, the activation is inactive: 0.505%. The result for `CCOC(=O)NC(Sc1cc(C)ncn1)C(Cl)(Cl)Cl` (stereo unspecified) reads inactive: 0.246%; that for `O=[N+]([O-])c1ccc(Nc2ccc([N+](=O)[O-])cc2[N+](=O)[O-])c(O)c1`, inactive: 4.61%; that for `CN(C(=O)Cc1ccccc1)[C@@H]1CC[C@]2(CCCO2)C[C@H]1N1CCCC1`, inactive: 1.9%. The result for `CC1(C)Nc2ccccc2OP1(=O)c1ccccc1` (stereo unspecified) reads inactive: 3.82%; that for `O=C(Oc1ccc([N+](=O)[O-])cc1[N+](=O)[O-])c1cc([N+](=O)[O-])cc([N+](=O)[O-])c1`, inactive: 1.12%. For the compound `O=[N+]([O-])c1cccc(P(=O)(Nc2ccccn2)c2cccc([N+](=O)[O-])c2)c1`, the activation was inactive: 0.859%. Regarding `CC(=O)c1cccc(NC(=O)N(Cc2ccco2)C2CCN(CCc3ccccn3)CC2)c1`, the activation was inactive: 0.365%. Consider `O=P(Nc1nccs1)(Oc1ccccc1)Oc1ccccc1`, for which the activation was inactive: -0.0688%. The result for `O=P(Nc1nccs1)(c1ccccc1)c1nc2ccccc2s1` (stereo unspecified) reads inactive: 0.68%. As to `NC(=O)COC(=O)C1(O)c2ccccc2-c2ccccc21`, the activation was inactive: 0.363%. In the case of `CCOP1(=O)Oc2ccccc2OC1c1ccccc1` (stereo unspecified), the activation is inactive: -0.623%. For the compound `Cn1cnc([N+](=O)[O-])c1SCCCl`, the activation is inactive: -0.551%. For `CCOc1ccc2nc(NCCCl)[nH]c2c1`, the activation is inactive: -0.263%. The result for `O=P(Nc1ccccn1)(c1ccccc1)c1ccccc1` reads inactive: -0.115%; that for `CC(=O)NC(SC1=NCCS1)C(Cl)(Cl)Cl` (stereo unspecified), inactive: -0.351%; that for `O=C(Nc1cccc([N+](=O)[O-])c1)c1ccc([N+](=O)[O-])cc1[N+](=O)[O-]`, inactive: 0.581%. The result for `Cc1ccc(NCCc2c([N+](=O)[O-])cc([N+](=O)[O-])cc2[N+](=O)[O-])cc1` reads inactive: -2.83%; that for `CCOC(=O)C(C(=O)OCC)C(O)c1c([N+](=O)[O-])cc([N+](=O)[O-])cc1[N+](=O)[O-]` (stereo unspecified), inactive: -0.103%; that for `O=C(N/N=C\c1ccc([N+](=O)[O-])cc1)c1cc([N+](=O)[O-])cc([N+](=O)[O-])c1O`, inactive: 1.04%. The result for `CCOP(=O)(Nc1cccc2ccccc12)OCC` reads inactive: 0.46%; that for `O=C(c1cccnc1)N(Cc1cccnc1)C1CCN(CCc2cccs2)CC1`, inactive: 0.154%; that for `CCC(C(=O)OC1CN2CCC1CC2)c1ccccc1` (stereo unspecified), inactive: 1.42%.

On to `CN(C(=O)Cc1ccc(Cl)c(Cl)c1)[C@@H]1CC[C@]2(CCCO2)C[C@H]1N1CCCC1`, for which the activation was inactive: -0.298%. The result for `CCOP1(=O)N=C(c2ccc(Br)cc2)NC(=O)N1` (stereo unspecified) reads inactive: 2.42%. The result for `Cc1cc(NC(=O)NP(=O)(O)O)n(-c2ccccc2)n1` reads inactive: 0.867%. The result for `COP(=O)(Nc1ccc(C)cc1)OC` reads inactive: -0.631%; that for `Cc1cccc(OCC(=O)OC2CN3CCC2CC3)c1` (stereo unspecified), inactive: 2.77%; that for `CC(C)OP(=O)(OC(C)C)C(=O)c1ccco1`, inactive: 1.46%. Turning to `Cc1cc(Br)c(Nc2c([N+](=O)[O-])cc([N+](=O)[O-])c3nonc23)cc1[N+](=O)[O-]`, the activation was active: 9.82%. The result for `BrCC1CN=C(Nc2ccccc2)S1` (stereo unspecified) reads inactive: 0.613%. For `COc1cc(-n2cnnn2)ccc1-n1cnnn1`, the activation was inactive: -0.488%.
